Sequences of proteins named here, by UniProt entry; tags and fusion partners are left off.
UniProt P61073, whole entry: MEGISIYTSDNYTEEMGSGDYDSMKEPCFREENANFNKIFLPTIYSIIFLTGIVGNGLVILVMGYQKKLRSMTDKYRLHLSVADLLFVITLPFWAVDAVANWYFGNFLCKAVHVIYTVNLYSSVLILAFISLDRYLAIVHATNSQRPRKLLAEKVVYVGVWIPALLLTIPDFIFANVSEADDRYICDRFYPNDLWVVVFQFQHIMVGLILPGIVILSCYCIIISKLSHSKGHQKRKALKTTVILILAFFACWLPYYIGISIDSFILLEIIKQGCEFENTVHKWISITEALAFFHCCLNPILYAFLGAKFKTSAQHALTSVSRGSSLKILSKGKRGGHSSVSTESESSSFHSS

In publication PMC10221217 (Viruses, 2023):

How the values were obtained:
CCR5 = CCR5 competitive binding assay; details: antibody C-45523, 4 μg/mL; CCR5 cell line; 40 min at 4 °C; IgG-FITC, fluorescence 485EX/535EM; maraviroc as positive control; three independent experiments
CXCR4 = molecular target: T1, CXCR4 (Homo sapiens, UniProt P61073); assay: CXCR4 competitive binding assay (anti-CXCR4 mAb 12G5)
T1 construct: expressed in transfected cells

Row | SMILES | competitive binding to CCR5 (CCR5) | comparison of CXCR4 binding of L- and D-peptide (in words) (CXCR4; anti-CXCR4 antibody 12G5 competitive binding) | CXCR4 selectivity over CCR5 (in words) (CXCR4; concluded from CXCR4 and CCR5 competitive binding)
1 | CC[C@@H](C)[C@H]1NC(=O)[C@@H](CO)NC(=O)[C@@H](CC(C)C)NC(=O)[C@@H](CCCNC(=N)N)NC(=O)[C@@H](CCCNC(=N)N)NC(=O)[C@@H](CCCNC(=N)N)NC(=O)[C@@H]([C@H](C)O)NC(=O)[C@@H](CC(N)=O)NC(=O)[C@@H](CC(N)=O)NC(=O)[C@@H](CC(N)=O)NC(=O)[C@H]2CCCN2C(=O)[C@@H](CCCNC(=N)N)NC(=O)[C@@H]([C@H](C)O)NC(=O)[C@H](NC(=O)[C@@H](CC(N)=O)NC(=O)[C@H](NC(=O)[C@H](NC(=O)[C@H](NC(=O)[C@@H](CO)NC(=O)[C@H](N)CCC(=O)O)C(C)C)C(C)C)[C@H](C)CC)CSSC[C@H](C(=O)N[C@H](CC(N)=O)C(=O)N[C@@H](C(=O)N[C@H](CO)C(N)=O)[C@H](C)CC)NC(=O)[C@@H](Cc2c[nH]cn2)NC(=O)[C@@H](C)NC(=O)[C@@H](CCC(N)=O)NC(=O)[C@@H](CCCNC(=N)N)NC(=O)[C@@H]([C@H](C)CC)NC(=O)[C@@H](CC(=O)O)NC(=O)CNC(=O)[C@@H]([C@H](C)CC)NC(=O)[C@@H]([C@H](C)CC)NC(=O)[C@@H](CC(N)=O)NC(=O)[C@@H](CCCNC(=N)N)NC(=O)[C@@H](CCCNC(=N)N)NC(=O)[C@@H](C)NC(=O)[C@@H](Cc2ccc(O)cc2)NC(=O)[C@@H](Cc2ccccc2)NC(=O)[C@@H](C)NC(=O)[C@@H](CCCNC(=N)N)NC(=O)CNC(=O)[C@H]2CCCN2C(=O)CNC1=O [D-V3 loop peptide] | Lack of CCR5 competitive binding; also recorded: Neither peptides displayed any competitive binding to CCR5 | – | –
2 | CC[C@H](C)[C@@H]1NC(=O)[C@H](CO)NC(=O)[C@H](CC(C)C)NC(=O)[C@H](CCCNC(=N)N)NC(=O)[C@H](CCCNC(=N)N)NC(=O)[C@H](CCCNC(=N)N)NC(=O)[C@H]([C@@H](C)O)NC(=O)[C@H](CC(N)=O)NC(=O)[C@H](CC(N)=O)NC(=O)[C@H](CC(N)=O)NC(=O)[C@@H]2CCCN2C(=O)[C@H](CCCNC(=N)N)NC(=O)[C@H]([C@@H](C)O)NC(=O)[C@@H](NC(=O)[C@H](CC(N)=O)NC(=O)[C@@H](NC(=O)[C@@H](NC(=O)[C@@H](NC(=O)[C@H](CO)NC(=O)[C@@H](N)CCC(=O)O)C(C)C)C(C)C)[C@@H](C)CC)CSSC[C@@H](C(=O)N[C@@H](CC(N)=O)C(=O)N[C@H](C(=O)N[C@@H](CO)C(N)=O)[C@@H](C)CC)NC(=O)[C@H](Cc2c[nH]cn2)NC(=O)[C@H](C)NC(=O)[C@H](CCC(N)=O)NC(=O)[C@H](CCCNC(=N)N)NC(=O)[C@H]([C@@H](C)CC)NC(=O)[C@H](CC(=O)O)NC(=O)CNC(=O)[C@H]([C@@H](C)CC)NC(=O)[C@H]([C@@H](C)CC)NC(=O)[C@H](CC(N)=O)NC(=O)[C@H](CCCNC(=N)N)NC(=O)[C@H](CCCNC(=N)N)NC(=O)[C@H](C)NC(=O)[C@H](Cc2ccc(O)cc2)NC(=O)[C@H](Cc2ccccc2)NC(=O)[C@H](C)NC(=O)[C@H](CCCNC(=N)N)NC(=O)CNC(=O)[C@@H]2CCCN2C(=O)CNC1=O [L-V3 loop peptide] | Lack of CCR5 competitive binding; also recorded: Neither peptides displayed any competitive binding to CCR5 | comparable binding recognition to the CXCR4 receptor | CXCR4 binding was selective

Entries after “also recorded” stand apart in the source; their conditions may differ.
